CCT chaperon mod – High-Throughput Screening for Modulators of Cytosolic Chaperonin Activity; activity change, % (test concentration not listed), hits read low; AID 651819, 2012; actives 0.3% (n = 360,000); purified chaperonin ATPase assay, HTRF ADP detection, 30 min; in the data active means activity change below about -30%; further: on the % scale 0 is the no-effect control and ±100 the full control effect
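Nucleotide hydrolysis assay: TRiC at 20–40 nM final (set by batch activity) with 10 uM ATP, 30 min at 37 °C, in presence of 76 uM compound. Detection by competitive ADP HTRF, 30 min ambient.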
Rango-impB inh – qHTS Assay for Inhibitors of Rango (Ran-regulated importin-beta cargo) - Importin beta complex formation | Potency, µM (highest dose often 92.2 µM), for the others: at the highest dose inhibition of complex formation | actives 0.031% (n = 340,000) | Importin subunit beta-1 (Homo sapiens), Q14974 | AID 540263, 2011 | Rango CFP/YFP FRET sensor + importin beta, 45 min;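 further: potency means the concentration at half of the fitted maximal effect; 0% = DMSO wells and 100% = buffer wells lacking importin beta; nearly all actives have a fitted effect of over 15% in size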
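Inhibition scored from the CFP 486 nm/YFP 530 nm FRET ratio 45 min after adding 0.125 microM importin beta to 50 nM Rango biosensor preincubated 5 min with compound (room temperature, PBS with DTT, Tween-20, BSA). No-importin wells as positive control.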
Rango release inh – qHTS Assay for Inhibitors of RanGTP induced Rango (Ran-regulated importin-beta cargo) - Importin beta complex dissociation; Potency, µM (titrated, usually from 46.1 µM), inactives show top-dose activity change, negative = inhibition; actives 0.071% (n = 340,000); Snurportin-1 (Homo sapiens) + GTP-binding nuclear protein Ran (Homo sapiens) + Importin …; Biochemical FRET Rango-importin beta, RanGTP-induced dissociation; further: potency means the concentration at half of the fitted maximal effect; % of control where 0% means no effect; nearly all actives have a fitted effect of over 45% in size
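Recombinant Rango FRET biosensor (EYFP–snurportin 1 IBB–cerulean CFP10) at 0.1 uM premixed with 0.25 uM importin beta in PBS, 1 mM DTT, 0.02% Tween-20, 0.1% BSA. Compound added 5 min; RanGTP-RCC1 (0.6 uM Ran, 2 mM GTP, 0.2 uM RCC1) then triggers release, read at 45 min.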
MmCpn inh – Inhibitors of TCP-1 ring complex (TRiC) of Methanococcus maripaludis (MmCpn): qHTS; purified Mm-Cpn ATPase, ADP Transcreener TR-FRET; Potency, µM (top dose mostly 76.9 µM), without a hit: at the top dose activity, negative = inhibition, most hits filed as inhibitors; Chaperonin Mm-Cpn (Methanococcus maripaludis); AID 504842, 2011; actives 0.031% (n = 330,000); active means well fitted inhibition curve with a large enough effect; inconclusive means small, poorly fitted or top-dose-only effect; further: potency means the concentration at half of the fitted maximal effect; on the % scale 0 is the no-effect control and ±100 the full control effect; nearly all actives have a fitted effect of over 80% in size
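ATPase read-out: TR-FRET ADP immunoassay (anti-ADP Eu cryptate vs ADP-d2), ex 320 nm, em 590/665 nm; signal drops as ADP forms. Enzyme 25 nM, ATP 10 uM, 30 min at 37°C after 10 min compound preincubation.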
* hit, by the source's call; ? = inconclusive; / = no result; [ ] = another dose, or the depositor's remark. Compounds with a hit are over-represented: about 0.39% of the library has one in this group of screens. Unless noted, the call rests on the fitted dose curve.

The chains behind the UniProt entries cited, without tags or fusion partners.
Importin subunit beta-1 (Homo sapiens), Q14974, UniProt Q14974, whole entry, looked up: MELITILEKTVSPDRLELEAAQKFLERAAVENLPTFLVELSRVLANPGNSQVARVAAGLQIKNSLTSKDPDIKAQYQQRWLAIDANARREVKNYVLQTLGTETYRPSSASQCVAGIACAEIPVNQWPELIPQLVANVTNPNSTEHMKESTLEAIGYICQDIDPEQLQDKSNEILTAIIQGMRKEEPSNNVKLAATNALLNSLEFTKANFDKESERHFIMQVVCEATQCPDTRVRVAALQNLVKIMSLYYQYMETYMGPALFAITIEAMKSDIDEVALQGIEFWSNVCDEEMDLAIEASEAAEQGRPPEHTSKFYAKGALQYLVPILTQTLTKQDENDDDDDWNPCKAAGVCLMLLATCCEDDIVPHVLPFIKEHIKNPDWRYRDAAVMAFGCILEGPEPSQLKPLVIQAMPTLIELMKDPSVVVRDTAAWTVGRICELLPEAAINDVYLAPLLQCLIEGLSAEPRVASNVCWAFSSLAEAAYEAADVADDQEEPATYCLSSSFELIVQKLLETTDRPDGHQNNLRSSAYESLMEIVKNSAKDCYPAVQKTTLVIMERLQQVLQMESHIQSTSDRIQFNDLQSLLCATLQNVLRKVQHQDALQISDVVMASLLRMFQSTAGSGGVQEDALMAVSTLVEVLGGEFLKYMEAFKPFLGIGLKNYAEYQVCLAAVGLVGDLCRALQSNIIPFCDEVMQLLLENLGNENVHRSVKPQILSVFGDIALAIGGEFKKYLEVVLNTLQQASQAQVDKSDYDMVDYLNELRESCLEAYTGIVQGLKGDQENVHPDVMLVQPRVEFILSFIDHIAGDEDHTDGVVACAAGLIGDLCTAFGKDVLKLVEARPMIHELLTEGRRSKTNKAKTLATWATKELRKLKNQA

CCT chaperon mod	Rango-impB inh	Structure	Rango release inh	MmCpn inh
1	?	COc1cc(/C=C/C(=O)OC(C)C(=O)Nc2c(C)n(C)n(-c3ccccc3)c2=O)ccc1O (stereo unspecified)	23µM*	1%
-1	-1%	Cc1c(NC(=O)C(C)OC(=O)/C=C/c2ccccc2)c(=O)n(-c2ccccc2)n1C (stereo unspecified)	0%	0%
-54*	-2%	CCS(=O)(=O)N1CCC(C(=O)Nc2cccc(F)c2)CC1	9%	-2%
0	58µM*	O=C1/C(=N\S(=O)(=O)c2cccs2)C([n+]2cccc(Cc3ccccc3)c2)=C([O-])c2ccccc21	19%	1%
-2	3%	O=C1/C(=N\S(=O)(=O)c2cccs2)C([n+]2ccc(CCCc3ccccc3)cc2)=C([O-])c2ccccc21	20%	-1%
-2	65µM*	O=C(NCc1ccc(F)cc1)c1cccc(S(=O)(=O)N2CCOCC2)c1	-2%	0%
-4	-3%	O=C(NCc1ccc(F)cc1)c1cccc(S(=O)(=O)N2CCCC2)c1	-14%	3%
-34*	1%	CCOC(=O)CNC(=S)N(Cc1ccccc1)Cc1cccnc1	0%	1%
-4	?	CC1=C(C(=O)Nc2cccc(C)n2)C(c2ccc3c(c2)OCO3)C2=C(CC(c3ccco3)CC2=O)N1 (stereo unspecified)	18µM*	0%
1	2%	O=C1CCC([N+](=O)[O-])C(c2cc(Br)ccc2F)N1 (stereo unspecified)	-1%	-5%
-2	3%	CN(C)c1ccc(NC(=O)C2C3C=CC(C3)C2C(=O)O)cc1 (stereo unspecified)	16%	25µM*
-1	-1%	CCOc1ccccc1C(=O)N/N=C/c1ccoc1	0%	2%
-66*	-2%	COC(=O)C1CCN(c2ccc([N+](=O)[O-])cc2)CC1	-6%	-3%
-57*	3%	CSc1nncc(/C(C)=N/O)n1	10%	0%
-2	/	COc1ccc(NC(=O)c2sc(=O)n(Cc3ccc4ccccc4c3)c2C)cc1OC	/	/
-2	3%	Cc1ccc(C(=O)Nc2ccc(OCc3ccccc3)cc2)cc1[N+](=O)[O-]	27%	1%
-46*	3%	O=C(Nc1ccc(OCc2ccccc2)cc1)c1cccc([N+](=O)[O-])c1	-12%	2%
-46*	5%	COc1ccccc1C1(O)CCN(CC(=O)Nc2nc(-c3ccccc3)cs2)CC1	0%	0%
/	/	CCCC[C@]12Cc3ccccc3C(O1)c1c(cc(-c3ccccc3)oc1=O)O2	/	0%[15.4 µM]
-1	2.1µM*	NC(=O)c1ccc(NC(=O)CN2C(=O)NC3(CCCCCCC3)C2=O)cc1	-13%	0%

Some of these compounds in order of the Rango release inh value, low to high:
Structure	CCT chaperon mod	Rango-impB inh	Rango release inh	MmCpn inh
COC(=O)C1CCN(c2ccc([N+](=O)[O-])cc2)CC1	-66*	-2%	-6%	-3%
COc1ccccc1C1(O)CCN(CC(=O)Nc2nc(-c3ccccc3)cs2)CC1	-46*	5%	0%	0%
CSc1nncc(/C(C)=N/O)n1	-57*	3%	10%	0%
CN(C)c1ccc(NC(=O)C2C3C=CC(C3)C2C(=O)O)cc1 (stereo unspecified)	-2	3%	16%	25µM*

Next section.
CCT chaperon mod	Rango-impB inh	Structure	Rango release inh	MmCpn inh
-7	0%	Cc1cccc(N2CCN(C(=O)c3ccc(NC4=NC5CS(=O)(=O)CC5S4)cc3)CC2C)c1 (stereo unspecified)	-1%	0%
-34*	0%	Cc1cc(C)nc(NC(=O)Cc2ccc([N+](=O)[O-])cc2)c1	-10%	0%
-3	/	CCCNC(=O)c1cc(C2CCCCN2S(C)(=O)=O)on1 (stereo unspecified)	/	/
0	5%	CCOc1cc(/C=C2\C(=N)N3N=C(S(=O)(=O)CC)SC3=NC2=O)ccc1OC(=O)c1ccco1	?	2%
-1	?	COc1cc(/C=C2\C(=N)N3N=C(S(C)(=O)=O)SC3=NC2=O)ccc1OC(=O)c1ccco1	5.8µM*	-1%
-2	0%	CCOc1ccc(S(=O)(=O)N2CCN(C(=O)CN3C(=O)NC(C)(C)C3=O)CC2)cc1	-6%	3%
0	-1%	COc1ccccc1-c1sc2cc3c(cc2c1-c1ccc2c(c1)OCO2)OCO3	18%	18µM*
0	/	COc1ccc(-c2coc3c(C(=O)NCc4ccc(C(F)(F)F)cc4)cccc23)c(C)c1	/	/
-74*	5%	CC(=O)c1c(C)nc(-c2ccc(Cl)cc2)nc1NC(=O)C(C)C	3%	-1%
0	?	Cc1ccc(-c2cc(C(=O)Nc3cccc(S(=O)(=O)N(C)C)c3)c3ccccc3n2)o1	15µM*	-11%
-63*	?	O=C(CSc1nc2ccccc2s1)c1cc2ccccc2o1	-16%	/
1	/	N#Cc1ccc(-c2nc3ccc(Br)cn3c2Cc2ccccc2)cc1	/	/
/	/	CC(C)CNC(=O)c1c(N)n(/N=C/c2cccnc2)c2nc3ccccc3nc12	/	-1%
-4	?	CCC(C)NC(=O)c1c(N)n(/N=C/c2cccnc2)c2nc3ccccc3nc12 (stereo unspecified)	3.3µM*[inhibitor]	-2%
1	3%	O=C(NN1CCCCCC1)c1ccccc1F	-2%	/
-39*	-2%	CC1(C)COC(/C=C/c2cccc([N+](=O)[O-])c2)=N1	11%	-3%
1	0%	CCCn1c(SCC(=O)N(C)CC(=O)Nc2ccc(C)cc2)n[nH]c1=O	10%	0%
-65*	-1%	C/C(=N\Nc1cc(-c2ccccc2)nc(-c2ccc(Br)cc2)n1)c1cccc(N)c1	-6%	/
-44*	0%	Cc1ccc(S(=O)(=O)NC(=O)NN2CC3CCCC3C2)cc1 (stereo unspecified)	18%	0%
-1	1%	Cc1ccc(S(=O)(=O)NC(=O)NN2CCCCCC2)cc1	-5%	0%

Records listed so far that bear a hit mark in MmCpn inh.
CCT chaperon mod	Rango-impB inh	Structure	Rango release inh	MmCpn inh
-2	3%	CN(C)c1ccc(NC(=O)C2C3C=CC(C3)C2C(=O)O)cc1 (stereo unspecified)	16%	25µM*
0	-1%	COc1ccccc1-c1sc2cc3c(cc2c1-c1ccc2c(c1)OCO2)OCO3	18%	18µM*

Other records:
CCT chaperon mod	Rango-impB inh	Structure	Rango release inh	MmCpn inh
-1	?	O=C(Oc1cc2oc(=O)c3c(c2cc1Cl)CCCC3)c1cccs1	8.2µM*[inhibitor]	-2%
-3	-7%	O=C(Oc1ccc2c3c(c(=O)oc2c1)CCCC3)c1cccs1	?	-1%
-4	?	Cc1ccc(C)n1-c1ccc(-c2ccnc(N)n2)cc1	15µM*	-1%
-2	/	COc1ccc(NC(=O)C2(C)CCCN2C(=O)C(C)C)cc1OC (stereo unspecified)	/	/
-45*	/	O=C(CSc1nnc2ccc(-c3ccccn3)nn12)Nc1cccc(F)c1	/	/
-80*	-3%	CCn1c(C(=O)NC2CCC(C)CC2)cc2sccc21 (stereo unspecified)	?	0%
0	/	O=S1(=O)CC(N2CCN(CCO)CC2)CN1Cc1cn(Cc2ccc(F)cc2)nn1 (stereo unspecified)	/	/
-1	46µM*	CCCNc1nc(Nc2ccc(C)cc2)nc(N2CCCC2)n1	-20%	2%
0	-4%	CC(C)n1nc(C(=O)OCC(=O)NCCc2ccc(S(N)(=O)=O)cc2)c2ccccc2c1=O	3%	/
0	7%	Cc1onc(-c2ccccc2)c1C(=O)Nc1ccccc1NC(=O)c1c(-c2ccccc2)noc1C	7%	0%
-1	58µM*	CCCOc1ccccc1NC(=O)c1c(-c2ccccc2)noc1C	3%	0%
